# In patent US10781262B2, “Combination therapy of T cell activating bispecific antigen binding molecules and PD-1 axis binding antagonists” (Hoffmann-La Roche Inc., priority 2014, dated 2020):
# System: TIM-3 pathway, human lymphocytes
# Assay: Mixed lymphocyte reaction (MLR), IFN-gamma release
# Format: cell-based
# Settings: IL-2 20 U/ml
# Protocol: T cells in the assay were tested for activation and theier IFN-gamma secretion in the presence or absence of an anti-TIM-3 mAbs. Human Lymphocytes were isolated from peripheral blood of healthy donor by density gradient centrifugation using Leukosep (Greiner Bio One, 227 288). Briefly, heparinized blood were diluted with the three fold volume of PBS and 25 ml aliquots of the diluted blood were layered in 50 ml Leukosep tubes. After centrifugation at 800×g for 15 min at room temperature (w/o break) the lymphocyte containing fractions were harvested, washed in PBS and used directly in functional assay or resuspended in freezing medium (10% DMSO, 90% FCS) at 1.0E+07 cells/ml and stored in liquid nitrogen. […] The levels of IFN-gamma were measured using OptEIA ELISA kit (BD Biosciences).
substance,measurement,value
MLR + IL-2: rec hu IL-2 (20 EU/ml) used as positive control [reference compound],IFNgamma release of positive control (=100%),100%
